Literature values, collected in publication PMC6723713, “Purification, Characterization and Evaluation of Inhibitory Mechanism of ACE Inhibitory Peptides from Pearl Oyster (Pinctada fucata martensii) Meat Protein Hydrolysate” (Marine Drugs, 2019).

Amino acid sequences for entries named in this document (tags omitted). Residues count along the entry.
UniProt P12822, 34-1310 limits assumed: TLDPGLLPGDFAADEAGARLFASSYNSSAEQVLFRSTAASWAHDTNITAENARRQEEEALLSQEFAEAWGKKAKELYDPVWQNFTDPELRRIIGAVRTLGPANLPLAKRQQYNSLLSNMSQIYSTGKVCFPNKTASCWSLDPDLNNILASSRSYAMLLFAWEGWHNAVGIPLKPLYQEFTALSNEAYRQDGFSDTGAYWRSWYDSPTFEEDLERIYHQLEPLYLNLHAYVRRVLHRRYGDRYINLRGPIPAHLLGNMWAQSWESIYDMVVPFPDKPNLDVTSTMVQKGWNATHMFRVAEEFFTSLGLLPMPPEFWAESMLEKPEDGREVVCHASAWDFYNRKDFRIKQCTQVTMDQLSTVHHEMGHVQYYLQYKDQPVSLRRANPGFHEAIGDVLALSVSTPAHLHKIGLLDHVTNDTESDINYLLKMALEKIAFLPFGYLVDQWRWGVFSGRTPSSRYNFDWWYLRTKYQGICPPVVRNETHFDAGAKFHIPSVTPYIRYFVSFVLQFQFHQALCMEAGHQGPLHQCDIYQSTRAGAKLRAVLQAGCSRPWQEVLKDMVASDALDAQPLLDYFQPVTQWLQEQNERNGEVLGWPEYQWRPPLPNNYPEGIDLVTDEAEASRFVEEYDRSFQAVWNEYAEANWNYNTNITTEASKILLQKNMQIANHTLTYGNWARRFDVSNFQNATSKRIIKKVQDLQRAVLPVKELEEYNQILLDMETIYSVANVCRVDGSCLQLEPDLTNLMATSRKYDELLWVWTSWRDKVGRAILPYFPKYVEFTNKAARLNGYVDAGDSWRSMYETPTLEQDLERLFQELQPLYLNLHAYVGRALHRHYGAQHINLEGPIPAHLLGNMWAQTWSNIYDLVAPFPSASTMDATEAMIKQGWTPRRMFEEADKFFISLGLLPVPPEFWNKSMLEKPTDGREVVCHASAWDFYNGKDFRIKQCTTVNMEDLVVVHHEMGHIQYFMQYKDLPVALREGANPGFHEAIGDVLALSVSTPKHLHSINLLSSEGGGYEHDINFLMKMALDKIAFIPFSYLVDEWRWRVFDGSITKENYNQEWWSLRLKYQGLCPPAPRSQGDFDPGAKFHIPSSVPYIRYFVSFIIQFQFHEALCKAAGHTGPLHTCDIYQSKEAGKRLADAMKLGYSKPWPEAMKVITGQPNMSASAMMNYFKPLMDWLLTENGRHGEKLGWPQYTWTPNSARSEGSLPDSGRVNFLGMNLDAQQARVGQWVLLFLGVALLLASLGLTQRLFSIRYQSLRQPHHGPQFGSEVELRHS

Molecular target: ACE (Oryctolagus cuniculus, UniProt P12822)
Settings: ref [28]; cited from earlier work
Excerpt: Table 2 Summary of ACE inhibitory peptides having similar structure with purified peptides. | column: IC50 (μM) || Table 3 Inhibition pattern of ACE inhibitory peptides derived from marine products. | column: Inhibition Pattern; IC50 (μM)

SMILES: C[C@H](NC(=O)[C@@H](N)Cc1c[nH]c2ccccc12)C(=O)O
- IC50: 277 µM
